From PMC12403594, “On the self-assembly of αB-crystallin” (Soft Matter, 2025)

Target: the molecule itself
Test: static light scattering; day 24 after sample preparation; 10-69 μM αBC; 20 mM sodium phosphate, 0.2 mM EDTA, 0.02% NaN3, pH 8.0; 25 °C; aggregation number from the slope of the excess Rayleigh ratio at q = 0 against concentration

B1: Recombinant human αB-crystallin (natural protein)
chain: MDIAIHHPWIRRPFFPFHSPSRLFDQFFGEHLLESDLFPTSTSLSPFYLRPPSFLRAPSWFDTGLSEMRLEKDRFSVNLDVKHFSPEELKVKVLGDVIEVHGKHEERQDEHGFISREFHRKYRIPADVDPLTITSSLSSDGVLTVNGPRKQVSGPERTIPITREEKPAVTAAPKK
notes: αB-crystallin, human; expressed from a synthetic gene with E. coli-optimized codons in a Pet3a vector; No tag is mentioned; The introduction gives 175 residues for the protein
- stoichiometry N: 17
